Assay results reported in PMC4890124, “Antimicrobial activity, improved cell selectivity and mode of action of short PMAP-36-derived peptides against bacteria and Candida” (Scientific Reports, 2016).
Marks after values point to notes of the source that are not given here.

Columns and labels:
[1] = system: Staphylococcus aureus ATCC 25923; format: cell-based; details: lowest concentration killing at least 99.9% of initial inoculum; three independent experiments
Protocol: The peptide antibacterial activity was determined against both gram-positive and gram-negative bacteria strains, including Escherichia coli ATCC 25922, Escherichia coli UB1005, Salmonella enterica serovar typhimurium C77-31, Staphylococcus aureus ATCC 29213, Staphylococcus aureus ATCC 25923, Bacillus subtilis CMCC 63501, and Staphylococcus epidermidis ATCC 12228. Clinically isolated Escherichia coli EC183 was provided by the 4th Affiliated Hospital of Harbin Medical University. MIC of the peptides was measured using a modified version of the National Committee for Clinical Laboratory Standards (NCCLS) broth microdilution method as described previously. The bacterial strains were inoculated and grown to mid-log phase in fresh Mueller-Hinton broth (MHB) at 37 °C. Bacterial inoculum suspensions were prepared at a final concentration of approximately 1 × 10^5 CFU/ml. Peptides were 2-fold serially diluted to make different concentrations, from 0.5 to 256 μM. Equal volumes of inoculum suspensions were then added to each well of a sterile 96-well plate with different concentrations of peptides, and the plate was incubated for 18 h at 37 °C. Broth with or without bacteria was employed as the positive control or the negative control, respectively. MIC was defined as the lowest concentration of peptides that prevented visible turbidity by visual inspection. […]

[2] = system: human red blood cells (hRBCs); assay: Hemolytic activity; format: cell-based; details: human erythrocytes in PBS, 1 h at 37 °C, absorbance 570 nm, 0.1% Triton X-100 positive control; highest tested 128 μM; three independent experiments
Protocol: The hemolytic activity of the peptides was measured as the amount of hemoglobin released by the lysis of human erythrocytes. The experimental protocol was reviewed and approved by the ethics committee of the Northeast Agricultural University Hospital, and the experimental method was carried out in accordance with the approved guidelines and regulations. Briefly, fresh and healthy human blood cells (hRBCs) in a polycarbonate tube containing heparin were centrifuged at 1,000 × g for 5 min at 4 °C. The erythrocytes obtained were washed three times and re-suspended in PBS. Then, the erythrocyte solution of 50 μl was incubated with 50 μl of the respective peptides dissolved in PBS for 1 h at 37 °C. Intact erythrocytes were pelleted by centrifugation at 1,000 × g for 5 min at 4 °C, and the supernatant was transferred to a new 96-well plate. Hemoglobin release was monitored using an absorbance microplate reader (TECAN GENios F129004; TECAN, Austria) at 570 nm. hRBCs in PBS and 0.1% Triton X-100 were employed as negative and positive controls, respectively. MHC was defined as the minimal peptide concentration that caused 5% hemolysis. Three independent experiments were performed in duplicate.

CC[C@H](C)[C@H](NC(=O)CN)C(=O)NCC(=O)N[C@@H](C)C(=O)N[C@H](C(=O)N[C@@H](CC(C)C)C(=O)N[C@@H](CCCCN)C(=O)N[C@H](C(=O)N[C@@H](CC(C)C)C(=O)N[C@H](C(=O)N[C@H](C(=O)NCC(=O)N[C@@H](CC(C)C)C(=O)N1CCC[C@H]1C(=O)N[C@@H](C)C(=O)N[C@@H](CC(C)C)C(=O)N[C@H](C(=O)N[C@@H](CO)C(=O)N[C@@H](Cc1c[nH]c2ccccc12)C(=O)N[C@H](C(=O)N[C@@H](CCCCN)C(=O)N[C@@H](CCCNC(=N)N)C(=O)N[C@@H](CCCCN)C(=O)N[C@@H](CCCNC(=N)N)C(=O)N[C@@H](CCC(N)=O)C(=O)N[C@@H](CCC(N)=O)C(N)=O)[C@@H](C)CC)[C@@H](C)CC)[C@@H](C)O)[C@@H](C)O)C(C)C)C(C)C [melittin, reference compound]
MBC S. aureus 25923 [1]: 8^c (8) μM
MHC (minimum hemolytic concentration that caused 5% hemolysis) [2]: 0.25 µM
